DT40 TDP1 no CPT – qHTS for Inhibitors of human tyrosyl-DNA phosphodiesterase 1 (TDP1): qHTS in cells in absence of CPT | DT40 Tdp1-/- hTDP1 cells, no CPT, ATP luminescence, 48 h | Potency, µM (top dose mostly 46.2 µM), for the others: at the top dose activity change, negative = growth inhibition, usual class: inhibitors | 420,000 tested, 15% active | AID 686978, 2013; note: potency is the fitted concentration of half-maximal effect; % is set by controls: 0 for no effect and ±100 for the full control effect; nearly all actives have a fitted effect of over 55% in size
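Cells were dispensed at 400 per well, compounds added by pin tool, plates incubated ≥48 hr at 37 °C, then CellTiter-Glo added for 30 min at room temperature before luminescence reading. Line: DT40 Tdp1-/- complemented with hTDP1; camptothecin omitted.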
TDP1 block – blocks human tyrosyl-DNA phosphodiesterase 1; 350,000 tested, 0.28% active; AID 485290; recombinant TDP1, AlphaScreen DNA substrate cleavage; Potency, µM (highest dose often 130 µM), for inactives: at the top dose activity change, negative = inhibition, most hits filed as inhibitors; note: potency is the fitted concentration of half-maximal effect; % is set by controls: 0 for no effect and ±100 for the full control effect; nearly all actives have a fitted effect of over 40% in size
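Enzyme-compound mixtures sat 15 min at room temperature, followed by a 5 min reaction with 15 nM final substrate and 10 min with AlphaScreen beads. Recombinant human Tdp1 was used at 1 nM final.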
miR-21 reporter – raises the signal of a miR-21 reporter; Potency, µM (doses to about 38.3 µM), inactives show top-dose reporter change, positive = more light; HeLa miR-21 FLuc reporter, luciferase, 48 h; AID 2288; 340,000 tested, under 10 active; active = well fitted rising curve with a large enough effect; inconclusive = small, poorly fitted or top-dose-only effect; inactive = no such curve, though single readings can be large or run the other way;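 further: % of control where 0% means no effect; miR-21 action dims this reporter so a rising signal means less miR-21 action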
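Compounds were titrated across several concentrations (up to approximately 40 uM) and incubated 48 hours with HeLa miR-21-FLuc reporter cells (miR-21 target sequence downstream of FLuc, endogenous miR-21). Readout was firefly luciferase luminescence after lytic detection reagent.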
uPA generation – blocks generation of uPA at the cell surface; cell surface uPA generation assay, qHTS; Potency, µM (titrated, usually from 38.3 µM), inactives show at the top dose activity change, negative = inhibition, usual class: inhibitors; 330,000 tested, 0.31% active; AID 540303; active = well fitted inhibition curve with a large enough effect; inconclusive = small, poorly fitted or top-dose-only effect; inactive = no such curve, though single readings can be large or run the other way; tested in mouse RAW 264.7 cells; note: potency is the fitted concentration of half-maximal effect; % is set by controls: 0 for no effect and ±100 for the full control effect; nearly all actives have a fitted effect of over 55% in size
DT40 TDP1 CPT – DT40-hTDP1 cell growth loss with CPT | Potency, µM (titrated, usually from 46.2 µM), for inactives: top-dose activity change, negative = growth inhibition, hits mostly inhibitors | chicken DT40 Tdp1-/-;hTDP1 cells + 20 nM CPT, ATP luminescence, 48 h | AID 686979 | 420,000 tested, 12% active; note: potency is the fitted concentration of half-maximal effect; % is set by controls: 0 for no effect and ±100 for the full control effect; nearly all actives have a fitted effect of over 55% in size
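Chicken DT40 Tdp1-/- cells complemented with human TDP1, 400 cells/well, exposed to compounds plus 20 nM camptothecin for at least 48 h at 37 C; viability read as ATP content by CellTiter-Glo luminescence.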
* hit, by the source's call; ? = inconclusive; nt = no result given; [ ] = dose if it differs, or a comment. Most compounds without a hit are left out; they make up all but 16% or so of the library. Unless noted, calls come from the whole dose curve; as a rule, active = well fitted curve in the direction sought with a large enough effect; inconclusive = small, poorly fitted or top-dose-only effect, or another doubt; inactive = no such curve, though single readings can be large; an effect the other way counts as inactive or inconclusive.

[1] C=CCC1([C@H](C)CCC)C(=O)NC(=O)NC1=O
[2] OC(CCNCCc1c[nH]c2ccccc12)C(F)(F)F (stereo unspecified)
[3] COC(=O)C1=C(c2ccc(S(C)(=O)=O)cc2)C[C@@H]2CC[C@H]1N2C(=O)N1CCOCC1
[4] COC(=O)C1=C(c2ccc3ccccc3c2)C[C@@H]2CC[C@H]1N2C(=O)N1CCOCC1
[5] COC(=O)C1=C(c2ccc3ccccc3c2)C[C@@H]2CC[C@H]1N2C(=O)N1CCCCC1
[6] COC(=O)C1=C(c2ccc3ccccc3c2)C[C@@H]2CC[C@H]1N2C(=O)N1CCC(O)CC1
[7] COC(=O)C1=C(c2cc3ccccc3o2)C[C@@H]2CC[C@H]1N2C(=O)N1CCOCC1
[8] COC(=O)C1=C(c2cc3ccccc3o2)C[C@@H]2CC[C@H]1N2C(=O)NCCNC(C)=O

screen / no.	1	2	3	4	5	6	7	8
DT40 TDP1 no CPT	-25.6%[92.5 µM]	-18.0%	6.7%	5.8µM*	1.84µM*	?	nt	nt
TDP1 block	nt	0.0%	nt	1.9%	0.9%	0.8%	nt	nt
miR-21 reporter	nt	-0.9%	nt	nt	nt	nt	nt	nt
uPA generation	nt	7.4%	-0.8%	?	-24.3%	2.4%	?	-0.6%
DT40 TDP1 CPT	-20.1%[92.5 µM]	8.9%	-1.8%	?	2.31µM*	?	3.66µM*	-20.8%

[9] COC(=O)C1=C(c2ccc3ccccc3c2)C[C@@H]2CC[C@H]1N2C(=O)N1CCCC1
[10] ClC(Br)Br
[11] COC(=O)C1=C(c2ccc(OC)c(OC)c2)C[C@@H]2CC[C@H]1N2C(=O)N1CCCCC1
[12] COc1cc2c(cc1OC)C1C(=O)c3c(cc4c(c3O)C=CC(C)(C)O4)OC1CO2 (stereo unspecified)
[13] CC(C)NCC(O)c1ccc(N)c(C#N)c1 (stereo unspecified)
[14] Cc1ccc(O)c(C(CCN(C(C)C)C(C)C)c2ccccc2)c1 (stereo unspecified)
[15] CCOc1ccc(S(=O)(=O)Nc2cccc(C(=O)N3CCN(c4ccccn4)CC3)c2)cc1
[16] Nc1nc(/C(=C/CC(=O)O)C(=O)NC2C(=O)N3C(C(=O)O)=CCSC23)cs1 (stereo unspecified)

screen / no.	9	10	11	12	13	14	15	16
DT40 TDP1 no CPT	3.26µM*	nt	9.2µM*	0.731µM*	-0.7%[92.5 µM]	-17.2%	16.4µM*	nt
TDP1 block	-0.3%	-3.7%	2.4%	20.8%[56.1 µM]	2.4%	5.4%	nt	25.1µM*
miR-21 reporter	nt	nt	nt	nt	nt	nt	nt	nt
uPA generation	?	nt	19.4%	nt	nt	nt	nt	nt
DT40 TDP1 CPT	2.91µM*	nt	8.2µM*	1.3µM*	-8.6%[92.5 µM]	-10.1%	13µM*	nt

[17] CN1CCN(c2oc(-c3ccc(COc4ccccc4)o3)nc2C#N)CC1
[18] N#Cc1ccc(NC(=O)CN2C(=O)NC3(CCCCCCC3)C2=O)cc1Cl
[19] CC(=O)N1CCN(CC(=O)Nc2ccc(C#N)c(Cl)c2)CC1
[20] CCOC(=O)C1OC1(C)c1ccccc1 (stereo unspecified)
[21] C[C@@H](Cc1cccc(C(F)(F)F)c1)NCCCc1ccccc1
[22] CCOc1ccc(C2CC(c3c(O)n(C)c(=O)n(C)c3=O)=NN2)cc1 (stereo unspecified)
[23] Cn1c(O)c(C2=NNC(c3ccc(Cl)cc3)C2)c(=O)n(C)c1=O (stereo unspecified)
[24] O=C(Cn1nc(-c2ccccc2)ccc1=O)N1CCC2(CC1)OCCO2

screen / no.	17	18	19	20	21	22	23	24
DT40 TDP1 no CPT	?	7.31µM*	3.4%	nt	13.3µM*	?	?	9.6%
TDP1 block	4.7%	-0.7%	7.5%	10.4%	11.5%[56.1 µM]	11.0%	11.0%	7.4%
miR-21 reporter	-0.9%	nt	0.4%	nt	nt	10.9%	-4.7%	-1.2%
uPA generation	nt	-6.5%	2.8%	nt	nt	-11.5%	1.8%	-2.0%
DT40 TDP1 CPT	?	11.6µM*	-28.4%	nt	13.3µM*	4.7%	25.9µM*	-10.4%

Gathered by group: those above containing an aryl methoxy group.
[11] COC(=O)C1=C(c2ccc(OC)c(OC)c2)C[C@@H]2CC[C@H]1N2C(=O)N1CCCCC1
[12] COc1cc2c(cc1OC)C1C(=O)c3c(cc4c(c3O)C=CC(C)(C)O4)OC1CO2 (stereo unspecified)

screen / no.	11	12
DT40 TDP1 no CPT	9.2µM*	0.731µM*
TDP1 block	2.4%	20.8%[56.1 µM]
miR-21 reporter	nt	nt
uPA generation	19.4%	nt
DT40 TDP1 CPT	8.2µM*	1.3µM*

Continuation.
[25] COc1ccc(C#Cc2ccc3c(c2)O[C@H](CN(C)S(=O)(=O)c2ccccc2F)[C@H](C)CN([C@H](C)CO)S3(=O)=O)cc1
[26] Cc1cc(C)cc(NC(=S)NC2CC3CCC(C2)N3Cc2ccco2)c1 (stereo unspecified)
[27] COc1cc2c(cc1OC)C13CCN4CC5=CCOC6CC(=O)N2C1C6C5C3C4 (stereo unspecified) (tested in a mixture with another compound)
[28] Cc1c(P(=S)(c2ccccc2)c2ccccc2)[n+]2ccccc2n1C
[29] Cc1c(P(=S)(c2ccccc2)c2ccccc2)c2ccccc2n1C
[30] COc1ccc([N+](=O)[O-])cc1NC(=O)COC(=O)c1ccccc1C(=O)c1ccccc1
[31] COc1ccc2nc(NC(=O)c3nc(S(=O)(=O)Cc4cccc(C)c4)ncc3Cl)sc2c1
[32] CCOc1ccc2nc(NC(=O)c3cccn(Cc4ccc(C)cc4)c3=O)sc2c1

screen / no.	25	26	27	28	29	30	31	32
DT40 TDP1 no CPT	20.6µM*	16.4µM*	?	4.11µM*	nt	?	2.06µM*	-11.3%
TDP1 block	nt	4.1%	nt	3.1%	-2.3%	4.5%	-2.3%	0.0%
miR-21 reporter	nt	-0.6%	nt	28.0%	nt	-3.0%	?	-2.1%
uPA generation	nt	-5.5%	-5.2%	1.2%	nt	-6.0%	nt	nt
DT40 TDP1 CPT	?	?	13µM*	5.8µM*	nt	0.3%	1.64µM*	-8.9%

Overlap with the part before: two entries, then new ones.
[31] COc1ccc2nc(NC(=O)c3nc(S(=O)(=O)Cc4cccc(C)c4)ncc3Cl)sc2c1
[32] CCOc1ccc2nc(NC(=O)c3cccn(Cc4ccc(C)cc4)c3=O)sc2c1
[33] CC(=O)OC(C)(C)/C=C/C(=O)[C@](C)(O)C1[C@H](O)C[C@@]2(C)C3CC=C4C(C[C@H](O)C(=O)C4(C)C)[C@]3(C)C(=O)C[C@]12C (stereo partly specified)
[34] CC(C)(O)/C=C/C(=O)C(C)(O)C1C(O)CC2(C)C3CC=C4C(C=C(O)C(=O)C4(C)C)C3(C)C(=O)CC12C (stereo unspecified)
[35] CCCCC(=O)Cl
[36] COc1ccc(Cl)cc1NC(=O)CN1C(=O)CN=C(c2ccccc2)c2cc(Cl)ccc21
[37] CCc1cccc(NC(=O)CN2C(=O)CN=C(c3ccccc3F)c3cc(Cl)ccc32)c1
[38] Cc1cc(C)cc(NC(=O)CN2C(=O)CN=C(c3ccccc3)c3cc(Cl)ccc32)c1
[39] CC1CCN(C(=O)CCl)CC1
[40] CCOP(=O)(/C=C(\Cl)c1ccccc1)C(O)c1ccc(F)cc1 (stereo unspecified)

screen / no.	31	32	33	34	35	36	37	38	39	40
DT40 TDP1 no CPT	2.06µM*	-11.3%	0.0206µM*	0.0164µM*	nt	14.6µM*	?	?	16.4µM*	16.4µM*
TDP1 block	-2.3%	0.0%	-0.1%	nt	7.6%	4.7%	8.5%	3.8%	1.9%	nt
miR-21 reporter	?	-2.1%	nt	nt	nt	?	28.4%	14.7%	8.6%	0.3%
uPA generation	nt	nt	-15.5%	-4.3%	nt	nt	nt	nt	?	-2.9%
DT40 TDP1 CPT	1.64µM*	-8.9%	0.0082µM*	0.0366µM*	nt	?	?	20.6µM*	?	?

A few values from the results shown:
#35 in TDP1 block: 7.6%
#37 in TDP1 block: 8.5%

(list continues)
[41] CCOP(=O)(OCC)C(O)c1ccccc1 (stereo unspecified)
[42] COc1ccccc1/C=C1/C(=N/O)C2CCN1CC2
[43] NC1(C(=O)O)CCCc2ccc(N(CCCl)CCCl)cc21 (stereo unspecified)
[44] O=C1NC(=O)C2(CCCc3ccc(N(CCCl)CCCl)cc32)N1 (stereo unspecified)
[45] CCc1cccc(CC)c1NC1=NCCN1
[46] COC(=O)C12CC3=CCC4C(=O)N(c5ccccc5)C(=O)C4C3Cc3ccccc3[C@@H]1CNC2=O (stereo partly specified)

screen / no.	41	42	43	44	45	46
DT40 TDP1 no CPT	-27.2%	-14.2%	2.31µM*	0.184µM*	nt	nt
TDP1 block	nt	-3.0%	nt	nt	4.9%	5.6%
miR-21 reporter	-0.1%	-1.7%	nt	nt	nt	nt
uPA generation	-8.2%	4.5%	-9.4%	-12.7%	nt	nt
DT40 TDP1 CPT	1.0%	-11.8%	1.64µM*	0.411µM*	nt	nt

Bioassay records deposited in PubChem by National Center for Advancing Translational Sciences (NCATS).
